{
  "source": "paper PMC8624105",
  "about": "(Viruses, 2021)",
  "key": {"[1]": {"target": "T1, PDZ domain of general receptor for phosphoinositides 1-associated scaffold protein (GRASP) (human, UniProt Q7Z6J2 101-190)", "T1 construct": "also called Tamalin", "assay": "holdup assay", "settings": "one partner purified"}, "PDZ domain of SNX27": {"target": "PDZ domain of SNX27 (human, UniProt Q96L92 43-136)", "assay": "holdup assay", "settings": "one partner purified"}},
  "data": [
    {"binder": "GFQNTDDVQTSF (also called PBM of ACE2)", "note": "[ACE2 PBM peptide (Biotin-(PEG3)-GFQNTDDVQTSF)]", "values": [
      {"measurement": "Kd", "setting": "[1]", "result": 81, "unit": "µM"},
      {"measurement": "Kd", "setting": "PDZ domain of SNX27", "result": 3, "unit": "µM"}
    ]}
  ]
}
